The values below come from publication PMC3690480.

The experiment addresses purified recombinant p110β/Δp85 (mouse) (UniProt Q8BTI9). The experiment is described as follows: ITC. In general terms: Isothermal titration calorimetry measures the heat released or taken up as one component is titrated into another.

Turning to “RAC1·GTPγS (soluble, untagged) (from UniProt P63001 1-192) (natural protein)”, the stoichiometry N (commonly a count of units in the complex or per binding partner) is 1.
